Patent US10676700B2
This is a selection: effects in other tests are not listed, and their absence says nothing.

Key:
[1] = Testing of stability of solution: petri dish at 50° C., 60% relative humidity for 48 hours; conditions: 10 ml in a petri dish
Description: (§1) 2. Testing of Stability of Solution
10 ml of an aqueous solution according to 1.2 were placed in a petri dish and left under the following conditions for 48 hours: 50° C., 60% relative humidity. After this period of time, aqueous solution according to 1.2 was still a clear solution.
10 ml of the above comparative solution were placed in a petri dish and left under the following conditions for 48 hours: 50° C., 60% relative humidity. After this period of time, significant precipitation could be observed.

[2] = Testing of stability of solution: concentrated to 45% and stirred at 23° C. for 5 days; conditions: concentrated to 45% solids content, stirred at 23° C. over 5 days
Description: as §1
50 ml of an aqueous solution according to 1.2 were concentrated to 45% solids content and then stirred at 23° C. over a period of time of 5 days. No precipitate formation could be observed.
For comparison purposes, MGDA-Na3 was synthesized by reacting acetaldehyde and hydrocyanic acid with iminodiacetonitrile, HN(CH2CN)2, in a molar ratio of 1:1:1 followed by subsequent saponification of the nitrile groups with a stoichiometric amount of NaOH as aqueous sodium hydroxide solution. The NH3 formed during the reaction was continuously removed by stripping. The volume of the reaction mixture was kept constant by repeated addition of water. A 40% by weight aqueous solution of […] was obtained. Said solution was concentrated to 45% by weight and then stirred at 23° C. over a period of time of 5 days. A significant turbidity could be observed.

Substance: racemic MGDA-Na3
- appearance of the aqueous solution (clear / precipitation) after storage [1]: significant precipitation
- precipitate formation / turbidity of the aqueous solution [2]: significant turbidity
